This is an account of results in PubChem BioAssay AID504326 (The Scripps Research Institute Molecular Screening Center, 2011).

By UniProt entry, the sequences of proteins in these tests, tags left out.
UniProt P35372, whole entry, looked up: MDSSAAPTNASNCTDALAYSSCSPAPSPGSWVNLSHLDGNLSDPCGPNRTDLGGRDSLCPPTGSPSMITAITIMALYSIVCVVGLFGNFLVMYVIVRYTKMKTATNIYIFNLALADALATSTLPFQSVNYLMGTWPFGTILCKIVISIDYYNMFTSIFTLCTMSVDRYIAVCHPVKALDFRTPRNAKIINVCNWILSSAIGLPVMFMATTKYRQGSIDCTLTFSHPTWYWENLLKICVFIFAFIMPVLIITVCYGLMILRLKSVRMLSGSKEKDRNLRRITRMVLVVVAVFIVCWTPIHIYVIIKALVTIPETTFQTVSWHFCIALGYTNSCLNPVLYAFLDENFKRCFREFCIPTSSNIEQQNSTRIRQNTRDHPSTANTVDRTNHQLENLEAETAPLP
UniProt P41143, whole entry, looked up: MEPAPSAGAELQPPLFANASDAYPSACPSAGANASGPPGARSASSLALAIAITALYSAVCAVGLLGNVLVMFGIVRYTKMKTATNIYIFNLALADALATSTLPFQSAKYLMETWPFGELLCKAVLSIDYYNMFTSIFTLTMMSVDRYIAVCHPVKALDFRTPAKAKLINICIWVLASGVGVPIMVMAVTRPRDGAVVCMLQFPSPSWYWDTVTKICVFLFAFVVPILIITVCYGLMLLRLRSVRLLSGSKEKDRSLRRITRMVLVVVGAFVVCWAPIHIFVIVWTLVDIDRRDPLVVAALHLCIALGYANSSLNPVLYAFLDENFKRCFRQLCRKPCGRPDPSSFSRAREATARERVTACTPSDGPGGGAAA

The list shows a part of the results, in another mix than the full data. Calls of active or inactive are those of the source. Cut-off read from the data, not from the text of the source: active = activation above about 18%; inactive = the rest.

The test addresses Mu-type opioid receptor (Homo sapiens) + Delta-type opioid receptor (Homo sapiens) (UniProt P35372+P41143). Description: inducers of mu-delta opioid receptor heterodimers – cell-based, luminescence, primary screen (AID 504326).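 Note: 0% = vehicle-treated cells and 100% = reference agonist.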 The following applies: cells, OPRM1-OPRD1 heterodimerization, at 9.3 µM, stronger effect = higher value.
For the compound `CSc1nc(N)nc2c1ncn2CC(=O)NCC1CCCO1` (centres undefined), the activation was inactive: -4.22%.
Then `Cn1c(=O)c2ncn(CC(=O)NCCOCc3ccccc3Cl)c2n(C)c1=O`, with inactive: -3.39%; and `O=C(Cn1c(-c2ccccc2Cl)nc2ccccc21)Nc1cccc(Cl)c1`, with inactive: -0.54%; and `Cn1c(=O)c2c(ncn2CC(=O)Nc2ccccc2Sc2ccccc2)n(C)c1=O`, with inactive: -3.18%.
Then `CCN(CC)C(=O)N1CCn2c(nc3ccccc32)C1`, with inactive: -0.45%; and `O=P1(Nc2ncccn2)COc2ccccc2OC1`, with inactive: -0.01%; and `Cn1c(=O)[nH]c(=O)c2c1nc(N1CCOCC1)n2CCN1CCOCC1`, with inactive: -3.13%.
With `Cc1ccc2c(c1)C1CN(C)CCC1N2C(=O)c1ccc(Br)o1` (centres undefined) the figure was inactive: -1.15%; with `Cc1ccc2c(c1)C1CN(C)CCC1N2C(=O)/C(C#N)=C/c1ccc2c(c1)OCO2` (centres undefined), inactive: -0.42%.
Take `COC(=O)CSc1nc2ccccc2n1CC(=O)N(C(C)C)C(C)C`: the activation is inactive: -1.19%.
Turning to `CN(C)CCn1cnc2c1c(=O)[nH]c(=O)n2Cc1ccccc1`, the activation is inactive: -2.42%.
Then `N=c1n(CCN2CCOCC2)c2ccccc2n1Cc1ccccc1Br`, with inactive: -4.39%; and `CCc1ccccc1NC(=O)CSc1nc2ccccc2n1CC(=O)N(C)C`, with inactive: -4.09%.
Then `O=S(=O)(Nc1ccc2c(c1)nc1n2CCN(Cc2ccccc2)C1)c1ccc(Cl)cc1`, with inactive: 0.05%.
Then `O=C(Cn1cnc2ccccc21)N/N=C/c1cccs1`, with inactive: -0.05%.
`CC(C)N(C(=O)Cn1c(SCC(=O)NCc2ccc3c(c2)OCO3)nc2ccccc21)C(C)C`: the activation was inactive: -3.41%.
With `O=C1CC(N2CCC(n3c(=O)[nH]c4ccccc43)CC2)C(=O)N1c1ccc(F)cc1` (centres undefined) the figure was inactive: -2.58%.
With `CC(c1ccccc1)N1CCn2c(nc3cc(NC(=O)c4cccs4)ccc32)C1` (centres undefined) the figure was inactive: -1.33%; with `COc1cccc(C(=O)N2CCn3c2nc2ccccc23)c1`, inactive: -2.92%; with `COc1ccc(Cc2nc3ccccc3n2CC(=O)N/N=C/c2ccc(C)cc2O)cc1OC`, inactive: 0.85%.
With `CN1CN(c2ccccc2)C2(CCN(CCCSc3ccccc3NC(=O)/C=C/c3ccccc3)CC2)C1=O` the figure was active: 18.3%.
Turning to `CCN(c1ccccc1)S(=O)(=O)c1ccc(OC)c(NC(=O)Cn2cnc3c2c(=O)n(C)c(=O)n3C)c1`, the activation was inactive: -1.65%.
Then `O=C(/C=C/c1ccccc1)OC1CN2CCC1CC2` (centres undefined), with inactive: -2.87%; and `COc1cccc(NC(=O)Cn2c(SCC(=O)N3CCOCC3)nc3ccccc32)c1`, with inactive: -1.14%.
`O=S(=O)(c1ccc(Cl)c(Cl)c1)N1CCc2nc3ccccc3n2CC1`: the activation was inactive: -1.26%.
With `Cn1c(=O)c2c(ncn2CC(=O)N/N=C/C=C/c2ccccc2)n(C)c1=O`, the activation was inactive: -1.2%.
Then `CC1CC(C)CN(Cc2nc3c(c(=O)n(C)c(=O)n3C)n2CCN2CCOCC2)C1` (centres undefined), with inactive: 1.49%; and `COc1ccc(CN(C)C(=O)Cn2cnc3c(SC)nc(N)nc32)cc1OC`, with inactive: -2.78%.
Then `CCCC1OP(=O)(Nc2ccccc2)OCC1CC` (centres undefined), with inactive: -2.04%.
`O=S(=O)(Nc1ccc2c(c1)nc1n2CCN(Cc2ccccc2)C1)c1ccccc1`: the activation is inactive: -2.44%.
For `O=S(=O)(c1ccc(Br)cc1)N1CCn2c(nc3ccccc32)C1`, the activation is inactive: 0.01%.
With `CCN1C(=O)CC(N2CCC(Nc3ccc(OC)cc3)CC2)C1=O` (centres undefined) the figure was inactive: -0.66%.
With `Cn1c(=O)c2ncn(CC(=O)NCCOc3ccc(C(C)(C)C)cc3)c2n(C)c1=O` the figure was inactive: -2.01%; with `O=C(CSc1nc2ccccc2n1CC(=O)NCc1ccccc1)NCc1ccco1`, inactive: -2.33%.
Then `CC(=O)Nc1ccc(NC(=O)C2CC(=O)Nc3nc4ccccc4n32)cc1` (centres undefined), with inactive: -2.38%; and `COc1ccc(Cl)cc1NC(=O)Cn1c(NCCO)nc2ccccc21`, with inactive: -1.62%.
As to `O=C(Cn1cnc2c(OCc3ccccc3)ncnc21)N[C@H](CO)Cc1cc2ccccc2[nH]1`, the activation was inactive: -2.97%.
On to `O=C(Cn1cnc2ccccc21)Nc1cc(C(F)(F)F)ccc1N1CCOCC1`, for which the activation was inactive: -0.03%.
With `CC(C)(C)NC(=O)Cn1c(SCC(=O)NCc2cccs2)nc2ccccc21` the figure was inactive: -3.59%; with `O=C(Cn1c(=O)n(CC2CS2)c2ccccc21)N1CCCCCC1` (centres undefined), inactive: 0.9%.
With `O=C(Cn1c(SCC(=O)N2CCc3ccccc32)nc2ccccc21)NC1CCCC1` the figure was inactive: -0.71%; with `CCn1cc(Cl)c(C(=O)Nc2nc3ccccc3n2CCN2CCCCC2)n1`, inactive: -0.62%; with `CCCC(=O)Nc1ccc(C(=O)/C=C/c2ccc(SC)cc2)cc1`, inactive: 1%.
With `O=C(Cn1c(C(F)(F)F)nc2ccccc21)NCCN1CCCC1` the figure was inactive: -0.23%; with `c1ccc2c(c1)nc(-c1ccncc1)n2CCNc1nc(CN2CCCCC2)cs1`, inactive: -3.74%; with `Cc1cccc(C)c1NC(=O)N1CCC(n2c(=O)[nH]c3ccccc32)CC1`, inactive: -1.77%.
With `Cc1cccc(Cn2c(=O)c3c(nc4n3CCN4Cc3ccco3)n(C)c2=O)c1`, the activation is inactive: -2.61%.
`Cc1nn(-c2ccccc2)c2c1P(=O)(N1CCOCC1)N(C)C(c1ccccc1)=N2` (centres undefined): the activation was inactive: -0.86%.
Then `Cc1ccc(C(=O)OC2CN3CCC2CC3)cc1` (centres undefined), with inactive: -1.89%; and `CC1CCC(C(C)C)C(OP(=O)(Nc2ccccn2)c2ccccc2)C1` (centres undefined), with inactive: 6.38%.
In the case of `CCN(CC)C(=O)Cn1c(=O)n(C)c2ccccc21`, the activation was inactive: 0.55%.
Then `CCN(CC)c1ccc(NC(=O)Cn2c(C(C)NC(=O)c3ccccc3)nc3ccccc32)cc1` (centres undefined), with inactive: 0.06%; and `O=C(Cn1cnc2c(OCc3ccccc3)ncnc21)NCCCc1ccccc1`, with inactive: -1.64%.
With `CCC(=O)Nc1nnc(/C=C/c2ccccc2)s1` the figure was inactive: 1.47%.
Then `COCCN1CCn2c(nc3cc(NC(=O)c4ccc(OC)cc4)ccc32)C1`, with inactive: 1.38%.
For `CCC(C)c1ccc2oc(-c3ccc(NC(=O)Cn4cnc5c(=O)n(C)c(=O)n(C)c54)cc3)nc2c1` (centres undefined), the activation is inactive: -1.39%.
With `CCS(=O)(=O)c1nc2ccccc2n1CC(=O)N1CCOCC1` the figure was inactive: -3.11%; with `O=C(Cn1c(CC(=O)N2CCOCC2)nc2ccccc21)Nc1ccc2c(c1)OC(F)(F)O2`, inactive: -1.78%.
For the compound `O=[N+]([O-])c1ccc(Nc2ccc(Oc3ccc([N+](=O)[O-])cc3[N+](=O)[O-])cc2)c([N+](=O)[O-])c1`, the activation was inactive: -2.55%.
With `Cc1cc(SC(NC=O)C(Cl)(Cl)Cl)ncn1` (centres undefined) the figure was inactive: -2.57%.
With `CCc1nc2ccccc2n1CC(=O)N1CCN(S(=O)(=O)c2cccc(C(F)(F)F)c2)CC1` the figure was inactive: -0.78%; with `O=P(Nc1ccccn1)(c1cccc2ccccc12)c1cccc2ccccc12`, inactive: -1.37%; with `COc1ccccc1C(=O)OCCNC(=O)Cn1cnc2c1c(=O)n(C)c(=O)n2C`, inactive: -0.58%.
Consider `O=C(Cn1c(CCCO)nc2ccccc21)Nc1ccccc1-c1ccccc1`, for which the activation is inactive: -2.01%.
Then `C/C(=N\NC(=O)Cn1c(C)nc2ccccc21)c1cccs1`, with inactive: -4.2%; and `CC(C)(C)NC(=O)Cn1c(SCC(=O)NC2CCCCC2)nc2ccccc21`, with inactive: -2.72%; and `CCCNC(=O)Cn1c(=O)n(C)c2ccccc21`, with inactive: -0.59%.
With `CCNC(=S)N1CCn2c(nc3ccccc32)C1` the figure was inactive: -0.57%; with `CC1CN(Cc2nc3c(c(=O)n(C)c(=O)n3C)n2CCN2CCOCC2)CC(C)O1` (centres undefined), inactive: -2.79%; with `Cn1c(=O)c2c(ncn2CC(=O)N/N=C/c2ccc(Br)s2)n(C)c1=O`, inactive: -0.81%.
As for `COC(=O)c1ccccc1NC(=O)Cn1cnc2c1c(=O)n(C)c(=O)n2C`, the activation was inactive: -1.53%.
Then `Cn1c(=O)n(Cc2ccccc2)c(=O)c2c1nc1n2CCN1Cc1ccco1`, with inactive: -3.28%; and `O=C(Cn1c(CO)nc2ccccc21)Nc1ccc2c(c1)OCCCO2`, with inactive: -0.87%.
With `COC(=O)C[C@H](NC(=O)Cn1cnc2c(OCc3ccccc3)ncnc21)C(=O)OC` the figure was inactive: -0.32%.
Then `Cn1c(=O)[nH]c(=O)c2c1ncn2CCN1CCCCC1`, with inactive: -1.86%.
As for `CCOC(=O)Nc1cccc([As](=O)(O)O)c1`, the activation was inactive: -1.29%.
With `Cc1ccc(NC(=O)Cn2c(=S)[nH]c3ccccc32)cc1` the figure was inactive: -1.37%.
Then `Cn1c(=O)c2c(ncn2CC(=O)NCc2cccnc2)n(C)c1=O`, with inactive: 0.46%; and `NNC(=O)Cn1c(-c2ccccn2)nc2ccccc21`, with inactive: 1.16%.
With `COc1cc(NC(=O)[C@H](C)NC(=O)N2CCn3c2nc2ccccc23)cc(OC)c1` the figure was inactive: -3.08%.
In the case of `O=C(CCCCCNC(=O)N1CCn2c1nc1ccccc12)NCCc1ccccc1`, the activation was inactive: -3.75%.
Regarding `Cc1ccc2c(c1)[C@@H]1CN(C)CC[C@@H]1N2S(=O)(=O)c1ccc([N+](=O)[O-])cc1`, the activation is inactive: 4.37%.
As for `COc1ccc(OCC(=O)N2c3ccc(C)cc3C3CN(C)CCC32)cc1` (centres undefined), the activation was inactive: 0.17%.
Turning to `CCC[n+]1cn(/C(C(=S)Nc2cccc(Cl)c2C)=C(/[O-])c2ccc(OC)c(OC)c2)c2ccccc21`, the activation was inactive: -6.07%.
Then `Cn1c(=O)c2c(ncn2CC(=O)N2CCc3ccccc3C2)n(C)c1=O`, with inactive: -2.41%.
Then `Cc1ccc(-c2csc(N3CCC[C@@H]3C(=O)NCCn3c(C(F)(F)F)nc4ccccc43)n2)cc1`, with inactive: 1.96%.
Then `CCCNC(=O)CC1C(=O)N(Cc2ccccc2)C(C)c2nc3ccccc3n21` (centres undefined), with inactive: 0.63%; and `CSc1nc(N)nc2c1ncn2CC(=O)NCc1ccccc1`, with inactive: -0.32%; and `CCCN(C(=O)Cn1c(C(F)(F)F)nc2ccccc21)C1CCS(=O)(=O)C1` (centres undefined), with inactive: -0.95%.
